What was measured:
[1] = molecular target: T1, RRRRRRRR (IK00800)
T1 chain: RRRRRRRR

[2] = molecular target: T2, RRRRRRRRRR (IK00100)
T2 chain: RRRRRRRRRR

B1: Lck(h) (lymphocyte-specific protein tyrosine kinase) (protein)
chain: MGCGCSSHPEDDWMENIDVCENCHYPIVPLDGKGTLLIRNGSEVRDPLVTYEGSNPPASPLQDNLVIALHSYEPSHDGDLGFEKGEQLRILEQSGEWWKAQSLTTGQEGFIPFNFVAKANSLEPEPWFFKNLSRKDAERQLLAPGNTHGSFLIRESESTAGSFSLSVRDFDQNQGEVVKHYKIRNLDNGGFYISPRITFPGLHELVRHYTNASDGLCTRLSRPCQTQKPQKPWWEDEWEVPRETLKLVERLGAGQFGEVWMGYYNGHTKVAVKSLKQGSMSPDAFLAEANLMKQLQHQRLVRLYAVVTQEPIYIITEYMENGSLVDFLKTPSGIKLTINKLLDMAAQIAEGMAFIEERNYIHRDLRAANILVSDTLSCKIADFGLARLIEDNEYTAREGAKFPIKWTAPEAINYGTFTIKSDVWSFGILLTEIVTHGRIPYPGMTNPEVIQNLERGYRMVRPDNCPEELYQLMRLCWKERPEDRPTFDYLRSVLEDFFTATEGQYQPQP
phosphorylation of Lck at Y394, western blot with anti-pY394, peptide 1 and 10 µM [1]: a significant increase in the level of phosphorylation detected at amino acid position Y394 of Lck. Again, the level of phosphorylation increased with increasing test peptide concentration | tyrosine phosphorylation of Lck, western blot with 4G10, peptide 1 and 10 µM [1]: a significant increase in the level of phosphorylation observed on Lck. Moreover, the level of phosphorylation increased with increasing test peptide concentration | phosphorylation of Lck at Y394, western blot with anti-pY394, peptide 1 and 10 µM [2]: a significant increase in the level of phosphorylation detected at amino acid position Y394 of Lck. Again, the level of phosphorylation increased with increasing test peptide concentration | tyrosine phosphorylation of Lck, western blot with 4G10, peptide 1 and 10 µM [2]: a significant increase in the level of phosphorylation observed on Lck. Moreover, the level of phosphorylation increased with increasing test peptide concentration

Source: patent publication US20260103488
